## Ab-91 heavy chain CDR variants: yeast mating affinities

Source: Engelhart et al. 2022 (doi:10.1038/s41597-022-01779-4), MIT Lincoln Laboratory and A-Alpha Bio; data file from the FLAb repository.

Binding partner: SARS-CoV-2 spike HR2 peptide, sequence PDVDLGDISGINAS.

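Phage display of a naive human antibody library on the peptide gave the parent. Library AAYL51 holds single substitutions and randomly drawn double and triple substitutions in the CDRs. The scFvs were displayed on barcoded MATa yeast, the peptide on MATalpha yeast. Mating (16 h, 30 °C) was followed by selection of diploids and sequencing of their barcodes. The ratio of observed to expected reads was calibrated, replicate by replicate, on BCL2-family standards whose Kd was known from biolayer interferometry. There are three technical replicates.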

Parent: Ab-91, a human scFv built as VL, three GGGGS repeats, VH. Only the CDRs of the heavy chain vary.
VL: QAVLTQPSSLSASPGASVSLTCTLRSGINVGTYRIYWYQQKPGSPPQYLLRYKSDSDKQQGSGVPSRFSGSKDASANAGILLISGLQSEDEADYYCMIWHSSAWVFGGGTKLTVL
VH: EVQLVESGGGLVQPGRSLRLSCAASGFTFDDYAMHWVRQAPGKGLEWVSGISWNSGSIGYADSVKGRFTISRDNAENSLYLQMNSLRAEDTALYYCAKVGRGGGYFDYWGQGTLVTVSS

Positions count from residue 1 of the parent VH; N54S puts S in place of N. Scale: log10 of Kd in nM, estimated from mating counts; low values are strong binders. Averages over replicates are reported, and they cover detected replicates only. Where no diploid with the target was found in any replicate, the entry reads "not detected": below detection, most likely a poor binder, though not proof of it. For reference, the parent read 1.86 as the reference entry and 0.88 as a member of this library. Empty control strains, which show no peptide, gave a signal in 21% of pairings with library AAYL51; the median was 4.54 and 95% of these signals were weaker than 3.26. No background was subtracted. For each scFv, signals with the empty controls are counted beside the result.

| changes | log10 Kd (nM), mean | replicates with signal | control signals |
|---|---|---|---|
| N54S K65G V99T | 5.83 | 1 of 3 | 1 of 9 |
| F27S D31N S52H | 4.06 | 1 of 3 | 3 of 9 |
| F27H S57R R101L | 6.18 | 1 of 3 | 3 of 9 |
| M34G I58H D62N | not detected | 0 of 3 | 1 of 9 |
| D30Q H35R | 5.44 | 3 of 3 | 3 of 9 |
| T28A S55C Y108C | 2.29 | 3 of 3 | 4 of 9 |
| D31G S57F Y60W | 5.07 | 2 of 3 | 3 of 9 |
| M34H H35K I58T | 0.41 | 3 of 3 | 0 of 9 |
| D30V N54V | 4.77 | 2 of 3 | 3 of 9 |
| W53P G104P Y105V | 6.48 | 1 of 3 | 6 of 9 |
| G59C G102R F106D | 4.62 | 1 of 3 | 1 of 9 |
| T28H I51D R101C | not detected | 0 of 3 | 2 of 9 |
| S52W S57C D107S | 4.81 | 1 of 3 | 1 of 9 |
| F27D A33V S52H | 3.88 | 1 of 3 | 3 of 9 |
| F29G H35K I51N | 4.18 | 3 of 3 | 0 of 9 |
| G26I S57I | 4.97 | 2 of 3 | 7 of 9 |
| S52F S63T F106P | not detected | 0 of 3 | 1 of 9 |
| D30E I58K D107E | 1.17 | 3 of 3 | 0 of 9 |
| G26L T28A Y32K | not detected | 0 of 3 | 3 of 9 |
| H35K G100S G102C | 4.66 | 2 of 3 | 3 of 9 |
| I58T V64W G102A | 5.06 | 3 of 3 | 6 of 9 |
| I51W Y105R F106Q | not detected | 0 of 3 | 5 of 9 |
| H35A I51H A61F | 4.94 | 1 of 3 | 2 of 9 |
| F27C N54F A61G | not detected | 0 of 3 | 0 of 9 |
| D30A H35S | 4.75 | 1 of 3 | 2 of 9 |
| K65V G100W D107E | 2.91 | 3 of 3 | 3 of 9 |
| M34N I51E | not detected | 0 of 3 | 0 of 9 |
| D31F S52T S55H | 5.65 | 2 of 3 | 3 of 9 |
| G56M S57I S63F | 3.38 | 1 of 3 | 0 of 9 |
| G50W S55Y G100A | not detected | 0 of 3 | 1 of 9 |
| M34F I58H G100C | 5.49 | 1 of 3 | 5 of 9 |
| Y32G S52E S55M | not detected | 0 of 3 | 0 of 9 |
| H35W A61Y Y108I | 3.66 | 1 of 3 | 1 of 9 |
| D31G Y32H S63F | 4.49 | 1 of 3 | 0 of 9 |
| A33W R101G Y108W | not detected | 0 of 3 | 5 of 9 |
| A33E S57D S63T | 5.68 | 1 of 3 | 4 of 9 |
| V99C R101H G103M | 5.13 | 1 of 3 | 3 of 9 |
| N54K S55V S63V | 4.88 | 3 of 3 | 6 of 9 |
| D31N S57V K65Q | 2.94 | 3 of 3 | 1 of 9 |
| T28Q D31M G104H | 4.94 | 3 of 3 | 5 of 9 |
| T28V W53P Y60W | 1.93 | 3 of 3 | 4 of 9 |
| T28Y G50R N54G | not detected | 0 of 3 | 0 of 9 |
| G50D S57E F106N | 3.91 | 1 of 3 | 0 of 9 |
| D30Y S55D V64P | not detected | 0 of 3 | 1 of 9 |
| S57N F106N | 3.62 | 2 of 3 | 2 of 9 |
| V99H G103W Y108C | 5.52 | 3 of 3 | 8 of 9 |
| D31P G50Q K65A | 3.87 | 1 of 3 | 0 of 9 |
| I51Y S57G G102L | not detected | 0 of 3 | 0 of 9 |
| F29Q I58V K65I | not detected | 0 of 3 | 1 of 9 |
| Y32S S57A G102I | 4.16 | 2 of 3 | 3 of 9 |
| F27Y H35K D107E | 3.98 | 2 of 3 | 3 of 9 |
| M34Y N54H S63F | 5.16 | 1 of 3 | 1 of 9 |
| G56Y A61M Y108W | 4.69 | 2 of 3 | 3 of 9 |
| A33Y A61D D62K | 2.37 | 1 of 3 | 1 of 9 |
| G26Y N54T G59L | 4.26 | 1 of 3 | 0 of 9 |
| T28D K65F D107L | not detected | 0 of 3 | 3 of 9 |
| Y32G A33W G102H | not detected | 0 of 3 | 0 of 9 |
| S52G W53D G102P | not detected | 0 of 3 | 1 of 9 |
| Y32N A33H | 4.24 | 1 of 3 | 8 of 9 |

The closing 6 entries, repeated:

| changes | log10 Kd (nM), mean | replicates with signal | control signals |
|---|---|---|---|
| A33Y A61D D62K | 2.37 | 1 of 3 | 1 of 9 |
| G26Y N54T G59L | 4.26 | 1 of 3 | 0 of 9 |
| T28D K65F D107L | not detected | 0 of 3 | 3 of 9 |
| Y32G A33W G102H | not detected | 0 of 3 | 0 of 9 |
| S52G W53D G102P | not detected | 0 of 3 | 1 of 9 |
| Y32N A33H | 4.24 | 1 of 3 | 8 of 9 |